Measurements published in ChEMBL document CHEMBL1129740, “Structure-activity relationships of a series of substituted benzamides: potent D2/5-HT2 antagonists and 5-HT1a agonists as neuroleptic agents” (J Med Chem, 1996).

By UniProt entry, the sequences of proteins in these tests, tags left out.
UniProt P19327, whole entry: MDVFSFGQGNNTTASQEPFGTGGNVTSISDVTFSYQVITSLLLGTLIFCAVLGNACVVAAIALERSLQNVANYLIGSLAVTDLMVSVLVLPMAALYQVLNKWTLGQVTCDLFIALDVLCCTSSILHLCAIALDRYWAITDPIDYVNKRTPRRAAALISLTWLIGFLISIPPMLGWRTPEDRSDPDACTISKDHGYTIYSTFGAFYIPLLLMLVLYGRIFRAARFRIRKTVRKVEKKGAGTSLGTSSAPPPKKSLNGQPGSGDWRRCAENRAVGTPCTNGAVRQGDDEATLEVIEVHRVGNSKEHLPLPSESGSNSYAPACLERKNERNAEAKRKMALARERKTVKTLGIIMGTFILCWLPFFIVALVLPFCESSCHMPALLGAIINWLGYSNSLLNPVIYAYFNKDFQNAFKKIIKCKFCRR

Molecular target: 5-hydroxytryptamine receptor 1A (Rattus norvegicus, UniProt P19327)

SMILES: CCOC(=O)Nc1ccccc1C(=O)NCCCCN1CCN(c2nsc3ccccc23)CC1.Cl
- IC50: 5.6 nM
